Type in all cases: biochemical
The nature of data set [1]: FXa chromogenic activity of rFX variants after activation with RVV-X. How it is done: (§1) The FX mutants were generated using the Quick-change site-directed mutagenesis kit (Stratagene) and the entire FX cDNA was sequenced to verify the identity of the product. The various plasmids were transiently transfected into HEK 293 cells using Lipofectamine-2000. 48 hr post-transfection, media was collected and FX antigen levels were determine using a FX-specific ELISA and FXa activity was assessed by chromogenic assay prior to activation by RVV-X or by tissue factor-FVIIa.

Data set [2] in a line: FXa chromogenic activity of rFX variants after activation with TF-FVIIa. How it is done:
as §1

Data set [3] is described as follows: Kinetic constants for chromogenic substrate cleavage (free factor Xa or prothrombinase). To be noted: for Km: read-out: Km ± SD. The text has this: (§2) Enzyme concentrations will be determined by active-site titration with ρ-nitrophenyl ρ-guanidinobenzoate (IIa) or fluorescein mono-ρ-guanidinobenzoate (FXa) (26, 27). FXa chromogenic substrate activity, in the presence or absence of various inhibitors, will be measured from initial rates of hydrolysis of Spectrozyme FXa, S-2222, or S-2765 as previously described (14). Kinetic parameters will be determined by least-squares fitting of the initial rate data to appropriate equations.

Data set [4] in a line: Kinetic studies using peptidyl substrates and active site directed probes. The following applies: free FXa.
From the text: as §2
We first focused on assessing changes to the active site environment of each of the variants using specific probes that target this region of FXa.

Where [5] appears, read: Prothrombinase, 5.0 nM FXa, 30 nM factor Va, 50 μM PCPS.

The source of these data is patent US9410137B2, “Compositions and methods for modulating hemostasis” (The Children's Hospital of Philadelphia, priority 2005, dated 2016).

Like-named read-outs stand apart in the source and are kept apart here.

What is called Km is the substrate concentration at which the rate is half of its maximum. Regarding “rFXa^I16G: factor X/Xa variant, Ile16 (position 235 in SEQ ID NO: 1) replaced by Gly”, the “FXa Activity” value is recorded as 0.00 nM in data set [1] (activation of FX with RVV-X, compared to FXa standard curve) and 0.037 nM in data set [2] (activation of FX with TF-FVIIa, compared to FXa standard curve). Moreover, the “% wt (FXa activity)” value in data set [1] (activation with RVV-X, adjusted for antigen levels) was 0.05%; in data set [2] (activation with TF-FVIIa, adjusted for antigen levels), 0.38%. In addition, the “fold change of kcat versus rwtFXa” value in data set [3] (Prothrombinase) is 60X. The “kcat ± SD” value in data set [3] (setting [5]) is 1.92 ± 0.05 s⁻¹; in data set [3] (free Factor Xa), 0.28 ± 0.05 s⁻¹. The Km amounted to 433 ± 31 µM in data set [3] (setting [5]) and 1610 ± 423 µM in data set [3] (free Factor Xa, 2.0 nM wild-type or 6.0 nM mutant). Further, in data set [3] (assembled in prothrombinase), the “Km increased compared to wild-type FXa” value was 3 fold. For the same substance, the “Km for peptidyl substrates” value in data set [3] (assembled into prothrombinase) is on record as “almost completely restored”. In addition, the kcat reduced in data set [3] (assembled into prothrombinase, compared to wild-type FXa) was 60 fold. Further, in data set [3] (free FXa), the chromogenic activity impaired lay in the range of 500 to 1000 fold. For the same substance, in data set [4], the “inhibition by active site directed probes” value is reported as “not inhibited by any of the probes examined”.
